# From ChEMBL document CHEMBL1138646, “Carbonic anhydrase inhibitors: inhibition of the membrane-bound human isozyme IV with anions” (Bioorg Med Chem Lett, 2004)
# Target: Carbonic anhydrase 9 (Homo sapiens, UniProt Q16790)
structure (smiles),measurement,value
[N-]=[N+]=N,Ki,5 µM
